Reference: ChEMBL document CHEMBL1147033, “Novel selective androgen receptor modulators: SAR studies on 6-bisalkylamino-2-quinolinones” (Bioorg Med Chem Lett, 2007)

By UniProt entry, the sequences of proteins in these tests, tags left out. Where a name states a change or a piece, a line headed by the entry shows the natural chain unless it says otherwise.
UniProt P10275: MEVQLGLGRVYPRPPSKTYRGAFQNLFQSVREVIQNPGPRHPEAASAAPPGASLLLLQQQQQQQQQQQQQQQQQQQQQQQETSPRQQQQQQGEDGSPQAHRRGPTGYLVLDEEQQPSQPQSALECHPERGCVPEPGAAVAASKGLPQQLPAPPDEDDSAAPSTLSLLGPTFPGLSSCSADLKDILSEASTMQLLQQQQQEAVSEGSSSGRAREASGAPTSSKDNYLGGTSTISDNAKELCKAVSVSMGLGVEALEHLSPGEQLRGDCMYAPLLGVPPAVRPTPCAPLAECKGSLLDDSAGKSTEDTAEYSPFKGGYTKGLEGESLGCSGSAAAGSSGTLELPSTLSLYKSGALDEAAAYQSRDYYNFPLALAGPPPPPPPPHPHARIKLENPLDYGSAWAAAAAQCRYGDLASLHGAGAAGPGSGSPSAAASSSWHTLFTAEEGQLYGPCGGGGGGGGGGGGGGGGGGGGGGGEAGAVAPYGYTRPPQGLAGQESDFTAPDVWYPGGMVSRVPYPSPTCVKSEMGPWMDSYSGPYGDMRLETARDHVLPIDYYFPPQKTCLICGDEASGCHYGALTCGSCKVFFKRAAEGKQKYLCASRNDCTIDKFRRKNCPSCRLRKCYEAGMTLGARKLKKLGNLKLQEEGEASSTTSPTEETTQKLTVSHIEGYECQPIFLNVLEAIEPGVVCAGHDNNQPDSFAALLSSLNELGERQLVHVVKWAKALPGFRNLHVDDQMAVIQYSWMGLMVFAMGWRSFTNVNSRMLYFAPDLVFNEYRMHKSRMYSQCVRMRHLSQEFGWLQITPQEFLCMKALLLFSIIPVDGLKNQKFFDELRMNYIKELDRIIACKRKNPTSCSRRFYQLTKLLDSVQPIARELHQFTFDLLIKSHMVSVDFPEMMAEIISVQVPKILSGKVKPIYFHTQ

Assays:
Androgen receptor [1] = target: T1, Androgen receptor (Homo sapiens, UniProt P10275)
Androgen receptor [2] = target: T1, Androgen receptor; remark: listed apart in the source
Androgen receptor [3] = target: T1, Androgen receptor; remark: listed apart in the source

| Structure (SMILES) | IC50 (Androgen receptor [1]) [nM] | EC50 (Androgen receptor [2]) [nM] | Ki (Androgen receptor [3]) [nM] |
| --- | --- | --- | --- |
| Cc1cc(=O)[nH]c2ccc(N(CC(C)C)CC(F)(F)F)cc12 | > 10000 | 3.2 | 12 |
| CCCN(CC(F)(F)F)c1ccc2[nH]c(=O)cc(C(F)(F)F)c2c1 | > 10000 | 1.3 | 12 |
| O=c1cc(C(F)(F)F)c2cc(N(CC(F)(F)F)CC(F)(F)C(F)(F)F)ccc2[nH]1 | > 10000 | 2.3 | 31 |
| Cc1cc(=O)[nH]c2ccc(N(CC(F)(F)F)CC(F)(F)F)cc12 | > 10000 | 0.8 | – |
| CCc1cc(=O)[nH]c2ccc(N(CC(F)(F)F)CC(F)(F)F)cc12 | > 10000 | 12 | 5.4 |
| O=c1ccc2cc(N(CC(F)(F)F)CC(F)(F)F)ccc2[nH]1 | 1 | 57 | 24 |
